Test results from publication PMC4235474 (Clinical Pharmacology : Advances and Applications, 2014).

Protein sequences, listed by entry. Tags and fused reporters are not part of them. Residues count along the entry.
UniProt P00743, 41-180 partner limits assumed: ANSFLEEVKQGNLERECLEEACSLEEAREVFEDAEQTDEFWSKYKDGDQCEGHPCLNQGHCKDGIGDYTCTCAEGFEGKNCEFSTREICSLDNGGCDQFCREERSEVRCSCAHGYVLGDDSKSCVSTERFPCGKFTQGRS
UniProt P00743, 234-492 limits assumed: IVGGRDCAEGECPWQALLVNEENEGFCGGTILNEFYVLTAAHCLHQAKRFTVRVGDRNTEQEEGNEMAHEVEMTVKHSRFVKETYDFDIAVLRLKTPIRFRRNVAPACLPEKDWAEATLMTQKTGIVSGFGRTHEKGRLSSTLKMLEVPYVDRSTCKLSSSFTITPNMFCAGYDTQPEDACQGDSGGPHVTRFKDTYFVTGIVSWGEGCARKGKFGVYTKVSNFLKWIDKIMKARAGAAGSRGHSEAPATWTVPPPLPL

Target: factor Xa (Bos taurus, UniProt P00743)
Test: Steady-state plasma anti-factor Xa activity
Type: in vivo, healthy subjects (human)
Conditions: for AXA AUC(0–24) G mean (CV): 0 to 24 hours after morning dose, day 4, rivaroxaban 10 mg QD, apixaban 2.5 mg BID, N=14

COc1ccc(-n2nc(C(N)=O)c3c2C(=O)N(c2ccc(N4CCCCC4=O)cc2)CC3)cc1 [Apixaban, apixaban]
AXA AUC(0–24) G mean (CV): 13.3 (22) IU · h/mL
AXA AUC(0–24) G mean (CV) (listed as apixaban): 13.3 IU · h/mL
AXA Peak:trough G mean (CV) (day 4 steady state, rivaroxaban 10 mg QD (n=13), apixaban 2.5 mg BID (N=14)): 4.7 (19.5)
